Results from article PMC3101196, “Trapping Conformational States Along Ligand-Binding Dynamics of Peptide Deformylase: The Impact of Induced Fit on Enzyme Catalysis” (PLoS Biology, 2011).

Sequences of proteins named here, by UniProt entry; tags and fusion partners are left off. Residues count along the entry.
UniProt Q9FUZ2, 57-273 G121M: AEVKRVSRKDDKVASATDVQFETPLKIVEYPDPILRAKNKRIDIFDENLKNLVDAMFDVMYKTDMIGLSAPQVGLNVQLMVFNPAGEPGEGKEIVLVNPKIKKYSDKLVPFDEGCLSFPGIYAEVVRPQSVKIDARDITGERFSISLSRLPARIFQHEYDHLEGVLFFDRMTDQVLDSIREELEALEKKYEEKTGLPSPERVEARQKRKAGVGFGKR
UniProt Q9FUZ2, 57-273 I122A: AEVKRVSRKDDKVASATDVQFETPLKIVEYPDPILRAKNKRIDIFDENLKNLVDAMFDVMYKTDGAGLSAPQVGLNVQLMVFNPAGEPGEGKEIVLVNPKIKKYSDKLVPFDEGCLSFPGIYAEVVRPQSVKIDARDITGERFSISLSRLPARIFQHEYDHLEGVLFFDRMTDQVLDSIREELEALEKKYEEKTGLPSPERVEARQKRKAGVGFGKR
UniProt Q9FUZ2, 57-273 I210A: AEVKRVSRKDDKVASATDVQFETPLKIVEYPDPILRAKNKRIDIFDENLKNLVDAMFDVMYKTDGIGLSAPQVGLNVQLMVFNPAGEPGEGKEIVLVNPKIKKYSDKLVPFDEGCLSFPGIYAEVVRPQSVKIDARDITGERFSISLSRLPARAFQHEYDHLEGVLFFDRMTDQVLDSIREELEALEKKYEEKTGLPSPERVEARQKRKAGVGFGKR
UniProt Q9FUZ2, 57-273 I122F: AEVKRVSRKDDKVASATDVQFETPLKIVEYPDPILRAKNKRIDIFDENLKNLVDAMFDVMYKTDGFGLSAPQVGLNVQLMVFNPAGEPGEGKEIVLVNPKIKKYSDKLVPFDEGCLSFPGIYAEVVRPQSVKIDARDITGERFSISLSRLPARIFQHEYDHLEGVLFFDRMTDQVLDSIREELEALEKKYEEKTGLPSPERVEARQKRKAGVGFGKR
UniProt Q9FUZ2, 57-273 I122N: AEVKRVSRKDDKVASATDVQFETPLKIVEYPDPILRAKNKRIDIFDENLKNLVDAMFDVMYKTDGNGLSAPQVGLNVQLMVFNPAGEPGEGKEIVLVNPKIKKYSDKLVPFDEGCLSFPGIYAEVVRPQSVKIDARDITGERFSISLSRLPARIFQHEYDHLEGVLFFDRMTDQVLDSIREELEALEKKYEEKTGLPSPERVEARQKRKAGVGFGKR
UniProt Q9FUZ2, 83-273 I122W: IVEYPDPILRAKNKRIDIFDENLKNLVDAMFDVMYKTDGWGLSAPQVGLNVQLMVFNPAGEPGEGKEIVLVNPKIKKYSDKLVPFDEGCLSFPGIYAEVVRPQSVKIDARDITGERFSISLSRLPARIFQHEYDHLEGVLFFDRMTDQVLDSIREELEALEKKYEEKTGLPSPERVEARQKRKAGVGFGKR

Assays:
Type in all cases: biochemical
Conditions in all cases: substrate Fo-Met-Ala-Ser, 100 nM enzyme, 750 µM NiCl2, 37°C
AtPDF variant G41M = biological target: T1, AtPDF variant G41M (Arabidopsis thaliana, UniProt Q9FUZ2, G121M)
T1 construct: Expression and purification of mature Arabidopsis thaliana PDF1B and all variants (i.e., AtPDF); made in house
Procedure: (§1) Assay of PDF activity was coupled to formate dehydrogenase, where the absorbance of NADH at 340 nm was measured at 37°C as previously described. […] The kinetics parameters were derived from iterative non-linear least square calculations using the Michaelis-Menten equation based on the experimental data (Sigma-Plot; Kinetics module). […] The data were then calculated according to the method of Henderson, which can be used to determine the dissociation constant of the tight-binding competitive enzyme inhibitor [28],[49],[72] by varying both the inhibitor and substrate concentrations. To determine K I, k 5, and k 6, the reaction was initiated by the addition of enzyme as previously described,[49]. […] From the set of values obtained at various concentrations of I, k5 and k6 could be derived using kobs = k6 + k5[I]/(KI + [I]).

AtPDF variant I42A = biological target: T2, AtPDF variant I42A (Arabidopsis thaliana, UniProt Q9FUZ2, I122A)
T2 construct: Expression and purification of mature Arabidopsis thaliana PDF1B and all variants (i.e., AtPDF); made in house
Procedure: as §1

AtPDF variant I130A = biological target: T3, AtPDF variant I130A (Arabidopsis thaliana, UniProt Q9FUZ2, I210A)
T3 construct: Expression and purification of mature Arabidopsis thaliana PDF1B and all variants (i.e., AtPDF); made in house
Procedure: as §1
(§2) The enzyme concentration used in the assay was 100 nM.

AtPDF variant I42F = biological target: T4, AtPDF variant I42F (Arabidopsis thaliana, UniProt Q9FUZ2, I122F)
T4 construct: Expression and purification of mature Arabidopsis thaliana PDF1B and all variants (i.e., AtPDF); made in house
Procedure: as §1, §2

AtPDF variant I42N = biological target: T5, AtPDF variant I42N (Arabidopsis thaliana, UniProt Q9FUZ2, I122N)
T5 construct: Expression and purification of mature Arabidopsis thaliana PDF1B and all variants (i.e., AtPDF); made in house
Procedure: as §1, §2

AtPDF variant I42W = biological target: T6, AtPDF variant I42W (Arabidopsis thaliana, UniProt Q9FUZ2, I122W)
T6 construct: Expression and purification of mature Arabidopsis thaliana PDF1B and all variants (i.e., AtPDF); made in house
Procedure: as §1, §2

`CSCC[C@H](NC=O)C(=O)N[C@@H](C)C(=O)N[C@@H](CO)C(=O)O` [Fo-Met-Ala-Ser] gave a Km (AtPDF variant G41M) of 5.8 ± 1.5 mM, a Km (AtPDF variant I42A) of 10.1 ± 2.6 mM and a Km (AtPDF variant I130A) of 5 ± 3 mM. It also gave a Km (AtPDF variant I42F) of 9.8 ± 2 mM, a Km (AtPDF variant I42N) of 5 ± 3 mM and a Km (AtPDF variant I42W) of 5.3 ± 0.5 mM.
